Values quoted from earlier work, collected in article PMC5390903, “Influence of drug transporters and stereoselectivity on the brain penetration of pioglitazone as a potential medicine against Alzheimer's disease” (Scientific Reports, 2015).

System: P-gp
Conditions: human placental apical membrane; cited from earlier work

## CN(CCOc1ccc(CC2SC(=O)NC2=O)cc1)c1ccccn1 (stereo not shown) [rosiglitazone]
  transporter responsible for transport (P-gp, BCRP, MRP1 investigated): predominantly transported by P-gp
